Molecular target: Prothrombin (Homo sapiens, UniProt P00734)
Assay: Inhibition of thrombin

- IC50: 1.39 nM
SMILES: N=C(N)c1csc(CNC(=O)[C@@H]2C=CCN2C(=O)[C@@H](CC2CCCCC2)NCC(=O)O)n1

— ChEMBL document CHEMBL1147692, “Orally active thrombin inhibitors. Part 1: optimization of the P1-moiety” (Bioorg Med Chem Lett, 2006)
